The numbers were not newly measured in patent publication US6562605B1, “Extraction of water soluble biomaterials from fluids using a carbon dioxide/surfactant mixture” (Genencor International, Inc., priority 1995, dated 2003), which cites them from elsewhere.

The conditions of this data set: at 487 bar.

For the substance Dimethyl dicoco ammonium chloride, the “Solubility in carbon dioxide” value is on record as “slightly soluble at 487 bar”.
